Experiment: in vivo
Conditions: mouse, ip
Procedure: To determine this toxicity, C.F.L.P. strain albino mice of both sexes, weighing between 19 and 25 grams, have been used as experimental animals. After an 18 hour fast period with water "ad libitum" the derivatives which are the subjects of the present invention are administered intraperitoneally in 5% suspension in gum arabic. The volume of suspension administered has in all cases been 0.4 ml/20 grams (20 ml/kg), changing the concentration of the suspension according to the dose administered.
One hour after the administration of the derivatives, the animals are supplied with Panlab standard rat-mouse feed. The period of observation of mortality has been 7 days.

## CCn1cc(C(=O)O)c(=O)c2cnc(N3CCNCC3)nc21 [Pipemidic acid, reference compound]
  LD50 at 168 h: > 1600 mg/kg
